From PubChem BioAssay
Rows were chosen to be rich in hits. Some 0.43% of all compounds tested hit in one or more screens of this group.
GIV Gai3 FP – inhibitors of GIV peptide binding to Galpha-i3, primary screen, biochemical, fluorescence polarization, FITC-GIV GBA peptide, rat Galphai3. Guanine nucleotide-binding protein G(i) subunit alpha-3 (Rattus norvegicus), P08753. 90 min; stronger effect = lower value; scaled: aluminum fluoride 0%, vehicle 100%. percent of control (FP), % (test concentration not listed). hit rate 0.42% among 210,000. AID 1224905, 2016;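 active = replicate mean at 85% of control or lower, very high polarization wells dropped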;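 note: wells of about 15 µL received 100 nL stock; the first replicate is given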
HCMV NEC inh – disrupts HCMV UL50-UL53 complex binding; HTRF UL50-UL53 interaction, normalized percent inhibition; inhibition, % (no concentration beside the values); hit rate 0.15% among 190,000; AID 1918969; in the data active = inhibition above about 27%, passing the limit was not always enough
GIV Gai FP conf – confirmation of inhibitors of GIV binding to rat Galpha-i3 | fluorescence polarization, mP at 100 µM | AID 1259350 | FITC-GIV peptide binding to Galphai3, fluorescence polarization; hits give low values | shares compounds with GIV Gai3 FP | hit rate 38% among 580;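 active = inhibition score of 15 or more, meaning 100 minus mean polarization as percent of control over three replicates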;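 also: lower mP means peptide displaced from Galphai3 so more inhibition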
GIV-Gai AS conf – confirmation of inhibitors of GIV binding to human Galpha-i3. shares compounds with GIV Gai3 FP. AlphaScreen Galphai3-GIV binding, purified proteins, 90 min; hits give low values. AID 1259351. hit rate 39% among 580. AlphaScreen counts at 100 µM;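 active = inhibition score at or above a set limit, where the score is 100 minus the three-replicate mean percent of control signal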
The depositor's hits bear a star; . = no result given.

By UniProt entry, the sequences of proteins in these tests, tags left out.
Guanine nucleotide-binding protein G(i) subunit alpha-3 (Rattus norvegicus), P08753, UniProt P08753, whole entry, looked up: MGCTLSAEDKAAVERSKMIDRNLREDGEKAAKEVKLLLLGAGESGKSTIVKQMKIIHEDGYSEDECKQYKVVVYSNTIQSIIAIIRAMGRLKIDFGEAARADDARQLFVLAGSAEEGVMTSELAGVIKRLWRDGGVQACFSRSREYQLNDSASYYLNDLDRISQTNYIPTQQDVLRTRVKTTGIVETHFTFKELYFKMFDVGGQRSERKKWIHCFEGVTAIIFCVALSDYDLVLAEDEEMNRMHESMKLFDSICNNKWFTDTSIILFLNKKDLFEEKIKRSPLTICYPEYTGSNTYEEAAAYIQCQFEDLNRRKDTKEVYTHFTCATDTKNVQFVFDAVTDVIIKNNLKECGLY

cpd	mol	GIV Gai3 FP	HCMV NEC inh	GIV Gai FP conf	GIV-Gai AS conf
1	O=C1NC(=O)/C(=C\c2cn(Cc3ccccc3F)c3ccccc23)N1	107	.	.	.
2	O=c1c2ccccc2nnn1CSc1nncs1	.	-69	.	.
3	Cc1nc(C)c(-c2nc(-c3cc4c(C)nn(-c5ccccc5)c4s3)no2)s1	128	-10	.	.
4	Cc1ccsc1-c1nc(-c2cc3c(C)nn(-c4ccccc4)c3s2)no1	41*	-14	85	32151
5	Cc1cc2c3c(c(Br)cc(S(=O)(=O)O)c3n1)C(=O)c1ccccc1-2	83*	.	25*	2617*
6	Cc1cc2c3c(c(N)cc(S(=O)(=O)O)c3n1)C(=O)c1ccccc1-2	126	.	.	.
7	C=CCNc1ncnc2sccc12	104	1	.	.
8	O=C(Nc1ccc(N2CCOCC2)c2nonc12)c1ccco1	113	0	.	.
9	Nc1ccc(N2CCOCC2)c2nonc12	63*	5	46*	2710*
10	O=C(Nc1cccc(F)c1F)C1CCN(c2ncccn2)CC1	93	-15	77	36448
11	Cc1ccc(NC(=O)C2CCN(c3ncccn3)CC2)cc1F	101	-12	.	.
12	O=C(C1CCN(c2cncnc2N2CCOCC2)CC1)N1CCN(C2CCCCC2)CC1	97	.	.	.

Along the list, quoted from above.
Compounds 2–11 in HCMV NEC inh: -69, -10, -14, ., ., 1, 0, 5, -15, -12

(more compounds)
cpd	mol	GIV Gai3 FP	HCMV NEC inh	GIV Gai FP conf	GIV-Gai AS conf
13	COc1ccc(NC(=O)Cn2nc(C(=O)Nc3ccccc3)ccc2=O)cc1	101	.	.	.
14	CN(C)c1ccc(-c2nnc3sc(-c4cccnc4)nn23)cc1	83*	-16	63	30008
15	CN(C)c1ccc(-c2nnc3sc(-c4ccncc4)nn23)cc1	106	-63	.	.
16	COc1ccc2c(CC(=O)O)coc2c1	90	-13	68	38743
17	COc1ccc2c(CC(=O)Nc3ccccc3)coc2c1	.	-31	.	.
18	O=c1[nH]c(Nc2nc(-c3ccccc3)c3cc(Cl)ccc3n2)nc2ccccc12	93	-9	.	.
19	O=C1CC(c2ccccc2)c2scc(-c3ccccc3)c2N1 (configuration not stated)	103	.	.	.
20	Cc1cc(C)c(S(=O)(=O)Nc2cc(C(=O)O)cnc2N2CCCC2)c(C)c1	101	-16	.	.
21	CC1(C)N2CC3([N+](=O)[O-])CN1CC([N+](=O)[O-])(C2)C3(C)C	92	.	64	45009
22	CC1(C)C2([N+](=O)[O-])CN3CC1([N+](=O)[O-])CN(C2)C3c1ccc(O)cc1 (configuration not stated)	128	.	.	.
23	CN1CCN(c2nc(-c3ccccc3)cc(-c3ccc(Br)cc3)n2)CC1	98	-9	.	.
24	COc1ccc(-c2nnc(SCC(=O)OC(C)C)o2)cc1	96	-10	.	.

Quoted from the listing:
For GIV Gai3 FP, no. 24 is listed with 96
For GIV Gai3 FP, no. 22 is listed with 128

Next part.
cpd	mol	GIV Gai3 FP	HCMV NEC inh	GIV Gai FP conf	GIV-Gai AS conf
25	Cc1cccn2c(=O)cc(COc3cccc(NC(=O)COc4ccc(F)cc4)c3)nc12	99	.	.	.
26	Cc1cccn2c(=O)cc(COc3cccc(NC(=O)COc4ccccc4)c3)nc12	95	.	79	34512
27	O=C(O)c1cc(NC(=O)c2ccc(NC(=O)c3ccco3)cc2)cc(C(=O)O)c1	79*	-34	64*	22001*
28	CC(=O)Nc1ccc(NC(=O)c2ccco2)cc1	94	-1	.	.
29	O=C1Nc2cc(Cl)ccc2Oc2ccc(S(=O)(=O)N3CCOCC3)cc21	104	.	.	.
30	CCOc1ccc(CNC(=O)c2cc(C)[nH]n2)cc1OC	99	-12	.	.
31	CCOC(=O)c1nc(NCCCN(CC)c2ccccc2)c2c(C)noc2n1	103	2	.	.
32	CSc1nnc2c(n1)OC(c1cccs1)Nc1ccccc1-2 (configuration not stated)	53*	-37	61	27085*
33	COc1ccc(C2Nc3ccccc3-c3nnc(SC)nc3O2)cc1C (configuration not stated)	36*	-37	82	27274
34	COc1cc(C2Nc3ccccc3-c3nnc(SC)nc3O2)cc(Br)c1O (configuration not stated)	105	-51	.	.
35	CCCSc1nnc2c(n1)OC(c1cccs1)Nc1ccccc1-2 (configuration not stated)	103	-31	.	.
36	Cn1c(NC(=O)C(c2ccccc2)c2ccccc2)cc(=O)n(C)c1=O	103	.	.	.

Overlap with the part before: 2 compounds, followed by the next part.
cpd	mol	GIV Gai3 FP	HCMV NEC inh	GIV Gai FP conf	GIV-Gai AS conf
35	CCCSc1nnc2c(n1)OC(c1cccs1)Nc1ccccc1-2 (configuration not stated)	103	-31	.	.
36	Cn1c(NC(=O)C(c2ccccc2)c2ccccc2)cc(=O)n(C)c1=O	103	.	.	.
37	CCn1nccc1C1CCCN1C(=O)Nc1ccsc1C(=O)OC (configuration not stated)	100	-22	.	.
38	O=C(Cc1csc2nc(-c3ccccc3)cn12)NCc1ccccc1	100	-10	.	.
39	O=c1sc2ccccc2n1Cc1ccccc1	.	4	.	.
40	O=c1sc2ccccc2n1Cc1nnc(-c2ccccc2)o1	92	19	74	33349
41	CCOc1ccccc1-c1c(C#N)c(N)nc(OC)c1C#N	103	-13	.	.
42	CCN(CC)c1ccc(-c2c(C#N)c(N)nc(OC)c2C#N)cc1	31*	-22	84	47104
43	CC(C)(C)C1CCC(=NNC(=O)Cc2cn3ccsc3n2)CC1 (configuration not stated)	.	-4	.	.
44	CCOc1cc(/C=c2\sc3nc4c(C)c(C)ccc4n3c2=O)cc(Cl)c1O	.	0	.	.
45	CCOC(=O)c1ccc(-c2ccc(/C=c3/sc4nc5c(C)c(C)ccc5n4c3=O)o2)cc1	79*	.	66	32406
46	CCOC(=O)c1nc2ccccc2nc1NCc1ccc2c(c1)OCO2	93	-13	68	39953
47	CCOC(=O)CSc1nc(NCc2ccc3c(c2)OCO3)c2ccccc2n1	112	.	.	.
48	O=c1oc2ccccc2c(O)c1C=Nc1ccccc1	107	-14	.	.
49	O=Cc1c(O)c2ccccc2c2ccccc12	44*	-27	38*	22285
50	O=C(CSc1nc(-c2ccccc2)cs1)N1CCOCC1	90	-2	73	49138
51	O=C(CSc1nc(-c2ccccc2)cs1)N1CCN(S(=O)(=O)c2ccccc2)CC1	.	-24	.	.
52	CCOc1ccc(NC(=O)c2nn(C)c(C(F)(F)F)c2Cl)cc1	101	18	.	.
53	Cn1c(=S)[nH]c2ccccc2c1=O	.	-11	.	.
54	COC(=O)c1c(NC(=O)CC2Nc3cc(C)c(C)cc3NC2=O)sc(C)c1C (configuration not stated)	94	.	22*	26621
55	COC(=O)c1c(NC(=O)CC2Sc3ccccc3NC2=O)sc(C)c1C (configuration not stated)	.	8	.	.
56	Cc1cc(CN2c3cccc4cccc(c34)S2(=O)=O)no1	.	-40	.	.
57	O=C(O)c1cccc(N2C(=O)/C(=C\C=C\c3ccco3)SC2=S)c1	74*	-11	71	35403
58	O=C(O)c1cccc(N2C(=O)/C(=C/c3ccccc3)SC2=S)c1	.	-5	.	.
59	Cc1ccc(/C=C2\SC(=S)N(C(CCC(=O)O)C(=O)O)C2=O)cc1 (configuration not stated)	.	-68	.	.
60	CC(C(=O)O)N1C(=O)/C(=C\c2ccco2)SC1=S (configuration not stated)	.	-62	.	.
61	O=C(O)CCC(C(=O)O)N1C(=O)/C(=C/C=C/c2ccco2)SC1=S (configuration not stated)	39*	75*	47*	2132*
62	CC(C(=O)O)N1C(=O)/C(=C/c2ccco2)SC1=S (configuration not stated)	75*	-66	55*	3227*
63	Cc1ccc(/C=C2\SC(=S)N(C(C(=O)O)C(C)C)C2=O)cc1 (configuration not stated)	103	.	.	.
64	CC(C)C(C(=O)O)N1C(=O)/C(=C/C=C/c2ccco2)SC1=S (configuration not stated)	58*	82*	54*	1448*

Profiles as entered above. Values in the order: GIV Gai3 FP	HCMV NEC inh	GIV Gai FP conf	GIV-Gai AS conf
`O=C(O)CCC(C(=O)O)N1C(=O)/C(=C/C=C/c2ccco2)SC1=S` (configuration not stated) in the list: 39*	75*	47*	2132*
`Cc1ccc(/C=C2\SC(=S)N(C(C(=O)O)C(C)C)C2=O)cc1` (configuration not stated) in the list: 103	.	.	.
